# High-throughput results as filed in PubChem.
# Only some compounds are listed: those with a hit (about 3.7% of all), similar ones and a draw of the others.
# Nrf2 activator: activators of Nrf2 (ARE) signaling; AREc32 ARE-luciferase reporter (MCF7-derived line), luminescence, 24 h; Potency, µM (titrated, usually from 46.1 µM), inactives show top-dose activation, actives largely listed as activators; actives 0.31% (n = 410,000); AID 624171; note: potency is the fitted concentration of half-maximal effect; % of control where 0% means no effect; nearly all actives have a fitted effect of over 65% in size
#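 Cells of the AREc32 ARE-luciferase line are plated in OPTI-MEM containing 5% FBS and left overnight at 37 deg C. Compounds are pinned in, incubation continues 24 hr, and firefly luciferase signal is then measured.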
# TCR activator: activates T cell receptor signaling; Potency, µM (highest dose often 9.22 µM), for inactives: top-dose activation of IL-2 secretion, actives largely listed as activators; 330,000 tested, under 10 active; primary human leukocytes, anti-CD3, IL-2 HTRF, 48 h; note: % of control where 0% means no effect
#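 Primary human leukocytes were stimulated with a-CD3 beads plus compounds for 48 hr without co-stimulation; secreted IL-2 was quantified by HTRF using a-IL-2-K (europium cryptate) and a-IL-2-d2, excited at 320nm with acceptor emission read at 665nm.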
# A549 viability: counter-screen for Nrf2 inhibitors: cytotoxicity in A549 cells | Potency, µM (top dose mostly 46 µM), for inactives: at the highest dose activity change, negative = cytotoxicity, hits mostly inhibitors | A549 ARE-Fluc cells, CellTiter-Fluor viability, 18-24 h | actives 0.16% (n = 390,000); note: potency is the fitted concentration of half-maximal effect; % is set by controls: 0 for no effect and ±100 for the full control effect
#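 A549 ARE_Fluc cells in 5% FBS OPTI-MEM were exposed to compounds in concentration-response for 18-24 h at 37 deg C. Viability was read by CellTiter-Fluor fluorescence (Ex 405/Em 525) after 30 min, before the luciferase read.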
# Nrf2 inh: Nrf2 pathway inhibition | A549 ARE-Fluc reporter, luciferase luminescence, 18-24 h | Potency, µM (highest dose often 46 µM), for the others: top-dose activity change, negative = inhibition, usual class: inhibitors | actives 2.1% (n = 360,000); note: potency is the fitted concentration of half-maximal effect; % is set by controls: 0 for no effect and ±100 for the full control effect; nearly all actives have a fitted effect of over 60% in size
#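 Nrf2 activity is the BugLite luminescence, read 15 min after reagent at room temperature, following CellTiter-Fluor cytotoxicity readout (30 min, 37C). Compound titrations were applied for 18-24 h to 5000 A549 ARE_Fluc cells/well in 5% FBS OPTI-MEM.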
# miR-21 reporter: miR-21 reporter, rising signal | AID 2288 | HeLa miR-21 FLuc reporter, luciferase, 48 h | 340,000 tested, under 10 active | Potency, µM (doses to about 38.3 µM), for inactives: at the top dose reporter change, positive = more light; active = well fitted rising curve with a large enough effect; inconclusive = small, poorly fitted or top-dose-only effect; inactive = no such curve, though single readings can be large or run the other way;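 note: % of control where 0% means no effect; miR-21 action dims this reporter so a rising signal means less miR-21 action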
#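 HeLa miR-21-FLuc reporter line, endogenous miR-21; 2000 cells/well in DMEM/10% FBS; compound titration up to ~40uM final, 48 h, 37 degree Celsius; luciferase detection reagent, 15 min lysis, CCD luminescence.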
# ClpP mod: qHTS Assay for Activators of ClpP; Potency, µM (top dose mostly 57.5 µM), inactives show at the top dose activity change, negative = active; purified B. subtilis ClpP, FRET peptide cleavage, 20 min; actives 1.9% (n = 340,000); ATP-dependent Clp protease proteolytic subunit (Bacillus subtilis (strain 168)), P80244; active = well fitted falling curve with a large enough effect; inconclusive = small, poorly fitted or top-dose-only effect; inactive = no such curve, though single readings can be large or run the other way; note: potency is the fitted concentration of half-maximal effect; the source files actives as falling curves though it sought activators and does not explain the sign; nearly all actives have a fitted effect of over 65% in size
#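 FRET quenching reversal measured ClpP activation: 10 microg/mL B. subtilis ClpP at pH 8 with the FRET-FV decapeptide, read at 430 nm after 320 nm excitation. The 20-min minus 0-min signal was scaled between DMSO/no-enzyme wells and ADEP (5.8 microM final).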
# * marks the source's active call; other numbers are inactive results; ? = inconclusive; . = no result given; [ ] = remark or other dose. Unless noted, calls come from the whole dose curve; as a rule, active = well fitted curve in the direction sought with a large enough effect; inconclusive = small, poorly fitted or top-dose-only effect, or another doubt; inactive = no such curve, though single readings can be large; an effect the other way counts as inactive or inconclusive.
1) COc1ccccc1CC(=O)Nc1cc2oc3ccccc3c2cc1OC
2) COc1cc2c(cc1NC(=O)COc1ccc(Br)cc1)oc1ccccc12
3) COc1cc2c(cc1NS(=O)(=O)N1CCCC1)oc1ccccc12
4) COc1cc2c(cc1NC(=O)CN1CCN(S(=O)(=O)c3ccc(C)cc3)CC1)oc1ccccc12
5) COc1cc2c(cc1NC(=O)COC(=O)C1CC(=O)N(Cc3ccco3)C1)oc1ccccc12 (stereo unspecified)
6) CCCCNC(=O)C1(C)CCN1C(=O)c1cccc2c1OCCO2 (stereo unspecified)

assay / entry | 1 | 2 | 3 | 4 | 5 | 6
TCR activator | 13% | . | -12% | -4% | 2% | .
Nrf2 activator | 6% | 4% | 0% | 0% | 9% | 0%[9.22 µM]
Nrf2 inh | 17% | 3% | -22% | ? | 27% | .
A549 viability | 2% | -1% | 12% | 13% | -6% | .
ClpP mod | 32µM* | ? | 25µM* | ? | 25µM* | -10%
miR-21 reporter | -27% | -3% | -2% | -3% | -35% | .

7) COc1cccc(CN(C)C(=O)c2ccc(OCC(=O)N3CCOCC3)c(OC)c2)c1
8) COc1cc2c(cc1NC(=O)c1ccc(C)c([N+](=O)[O-])c1)oc1ccccc12
9) COc1ccccc1CC(=O)Nc1ccc(O)cc1C(=O)O
10) COc1cc2c(cc1NC(=O)COC(=O)[C@@H](NC(=O)c1ccccc1F)C(C)C)oc1ccccc12
11) COc1ccc(NC(=O)COc2ccc(-c3nn(C)c(=O)c4ccccc34)cc2)cc1
12) COc1ccc(OCC(=O)Nc2cc(-c3nn(C)c(=O)c4ccccc34)ccc2OC)cc1

assay / entry | 7 | 8 | 9 | 10 | 11 | 12
TCR activator | -4% | 2%[46.1 µM] | -4% | -3%[46.1 µM] | 6% | .
Nrf2 activator | -1% | 4% | 0% | 4% | 0% | 1%
Nrf2 inh | -16% | -4% | 13% | 5% | -22% | 23µM*
A549 viability | -4% | 4% | 1% | 1% | 0% | -14%
ClpP mod | -1% | -6% | 18µM* | 5.6µM* | -5% | -24%
miR-21 reporter | . | -7% | -3% | -24% | -12% | 1%

# Record cards, as listed above. Values in the order: TCR activator	Nrf2 activator	Nrf2 inh	A549 viability	ClpP mod	miR-21 reporter
# `COc1ccc(OCC(=O)Nc2cc(-c3nn(C)c(=O)c4ccccc34)ccc2OC)cc1` is listed with .	1%	23µM*	-14%	-24%	1%
# `COc1cc2c(cc1NC(=O)c1ccc(C)c([N+](=O)[O-])c1)oc1ccccc12` is listed with 2%[46.1 µM]	4%	-4%	4%	-6%	-7%
# `COc1ccc(NC(=O)COc2ccc(-c3nn(C)c(=O)c4ccccc34)cc2)cc1` is listed with 6%	0%	-22%	0%	-5%	-12%

# Next section.
13) COc1cc2c(cc1NC(=O)c1cccc([N+](=O)[O-])c1)oc1ccccc12
14) Cn1cc(/C=C/c2ccc3ccccc3n2)c2ccccc21
15) CC(=O)Nc1c(C)nn(-c2ccccc2)c1N1CCC(C(=O)Nc2ccccc2C(F)(F)F)CC1
16) COCCNC(=O)Nc1ccc2c(c1)N(C)C(=O)c1ccccc1S2
17) COc1cc(OC)c(NC(=O)Nc2ccc3c(c2)N(C)C(=O)c2ccccc2S3)cc1Cl

assay / entry | 13 | 14 | 15 | 16 | 17
TCR activator | 8% | . | . | -15% | .
Nrf2 activator | 9% | . | 4% | 2% | -1%
Nrf2 inh | 16µM* | . | . | -7% | 21µM*
A549 viability | 18µM* | . | 0% | 0% | -18%
ClpP mod | -3% | -7% | 0% | . | -1%
miR-21 reporter | 6% | . | 0% | -6% | 23%
